This data set has as its system Kunming mice. Briefly: Acute toxicity test in mice (LD50). The note with it: single intraperitoneal administration, observed two weeks, Bliss method.

The results in this text go back to US10011614B2, “Bis-β-carboline compound and preparation method, pharmaceutical composition and use thereof” (XINJIANG HUASHIDAN PHARMACEUTICAL RESEARCH CO., LTD., priority 2012, dated 2018).

The structures appear in SMILES notation.

The compound `c1ccc2c(c1)c1ccncc1n2CCCCCn1c2ccccc2c2ccncc21` [Compound 2, 1,5-bis(β-carboline-9-yl)pentane] displayed an acute toxicity LD50 of 150 mg/kg.

`Cc1nccc2c3ccc(OC(C)C)cc3n(CCCCCCn3c4cc(OC(C)C)ccc4c4ccnc(C)c43)c12` [Compound 25, 1,6-bis(7-isopropoxy-1-methyl-β-carboline-9-yl) hexane] yielded an acute toxicity LD50 of 220 mg/kg.

In turn, `c1cncc(-c2nccc3c4ccccc4n(CCCCCCn4c5ccccc5c5ccnc(-c6cccnc6)c54)c23)c1` [Compound 32, 1,6-bis[1-(pyridine-3-yl)-β-carboline-9-yl) hexane] registered an acute toxicity LD50 of 250 mg/kg.
